Legend:
human GLP-1 receptor = biological target: T1, human GLP-1 receptor (Homo sapiens, UniProt P43220); experiment: cAMP response (HTRF) of HEK-293 cells stably expressing human GLP-1 receptor; format: cell-based; conditions: Table 5; cAMP, HEK-293; read-out: EC50 hGLP-1R
T1 construct: expressed in transfected cells; host or cells: HEK-293

Amino acid sequences for entries named in this document (tags omitted). Residues count along the entry.
UniProt P43220, 24-463: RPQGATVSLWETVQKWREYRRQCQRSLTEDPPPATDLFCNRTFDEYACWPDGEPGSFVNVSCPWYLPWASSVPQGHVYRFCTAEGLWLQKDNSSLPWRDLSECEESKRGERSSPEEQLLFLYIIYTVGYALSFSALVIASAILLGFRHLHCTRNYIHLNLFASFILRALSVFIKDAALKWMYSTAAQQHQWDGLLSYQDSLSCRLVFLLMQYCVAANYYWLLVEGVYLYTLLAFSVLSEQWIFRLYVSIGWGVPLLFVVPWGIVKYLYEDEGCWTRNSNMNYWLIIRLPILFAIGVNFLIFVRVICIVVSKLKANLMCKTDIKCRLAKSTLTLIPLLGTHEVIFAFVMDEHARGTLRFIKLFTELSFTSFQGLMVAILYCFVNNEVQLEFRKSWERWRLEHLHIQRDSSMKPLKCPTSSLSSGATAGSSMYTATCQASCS
UniProt P47871, 26-477: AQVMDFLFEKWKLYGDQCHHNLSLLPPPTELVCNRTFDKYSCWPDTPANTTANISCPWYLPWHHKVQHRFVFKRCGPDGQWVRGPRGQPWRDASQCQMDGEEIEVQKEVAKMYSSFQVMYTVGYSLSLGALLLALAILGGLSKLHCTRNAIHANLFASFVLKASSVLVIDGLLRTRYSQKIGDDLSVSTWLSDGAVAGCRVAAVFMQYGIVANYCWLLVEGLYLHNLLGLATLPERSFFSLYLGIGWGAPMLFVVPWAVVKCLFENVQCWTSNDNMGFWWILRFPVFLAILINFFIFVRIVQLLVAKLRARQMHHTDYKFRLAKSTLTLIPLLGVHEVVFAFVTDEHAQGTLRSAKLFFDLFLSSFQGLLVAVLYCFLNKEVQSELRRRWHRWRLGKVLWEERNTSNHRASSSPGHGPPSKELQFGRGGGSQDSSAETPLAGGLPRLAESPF

human glucagon receptor = biological target: T2, human glucagon receptor (Homo sapiens, UniProt P47871); experiment: cAMP response (HTRF) of HEK-293 cells stably expressing human glucagon receptor; format: cell-based; conditions: Table 5; cAMP, HEK-293; read-out: EC50 hGlucagon-R
T2 construct: expressed in transfected cells; host or cells: HEK-293

Structure (SMILES)	EC50 (human GLP-1 receptor)	EC50 (human glucagon receptor)
CCCCCCCCCCCCCCCC(=O)N[C@@H](CCC(=O)NCCCC[C@H](NC(=O)[C@H](CCC(N)=O)NC(=O)[C@H](CCCCN)NC(=O)[C@H](CO)NC(=O)[C@H](CC(C)C)NC(=O)[C@H](CC(=O)O)NC(=O)[C@H](CO)NC(=O)[C@@H](NC(=O)[C@H](Cc1ccccc1)NC(=O)[C@@H](NC(=O)CNC(=O)[C@H](CCC(N)=O)NC(=O)[C@@H](CO)NC(=O)[C@@H](N)Cc1c[nH]cn1)[C@@H](C)O)[C@@H](C)O)C(=O)N[C@@H](CC(=O)O)C(=O)N[C@@H](CO)C(=O)N[C@@H](CCCNC(=N)N)C(=O)N[C@@H](CCCNC(=N)N)C(=O)N[C@@H](C)C(=O)N[C@@H](CCC(N)=O)C(=O)N[C@@H](CC(=O)O)C(=O)N[C@@H](Cc1ccccc1)C(=O)N[C@H](C(=O)N[C@@H](CCC(=O)O)C(=O)N[C@@H](Cc1c[nH]c2ccccc12)C(=O)N[C@@H](CC(C)C)C(=O)N[C@@H](CCCCN)C(=O)N[C@@H](CCCNC(=N)N)C(=O)NCC(=O)NCC(=O)N1CCC[C@H]1C(=O)N[C@@H](CO)C(=O)N[C@@H](CO)C(=O)NCC(=O)N[C@@H](C)C(=O)N1CCC[C@H]1C(=O)N1CCC[C@H]1C(=O)N1CCC[C@H]1C(=O)N[C@@H](CO)C(N)=O)[C@@H](C)CC)C(=O)O [compound 125]	31.4 pM	6.9 pM
CCCCCCCCCCCCCCCC(=O)N[C@@H](CCC(=O)NCCCC[C@H](NC(=O)[C@H](CCC(N)=O)NC(=O)[C@H](CCCCN)NC(=O)[C@H](CO)NC(=O)[C@H](CC(C)C)NC(=O)[C@H](CC(=O)O)NC(=O)[C@H](CO)NC(=O)[C@@H](NC(=O)[C@H](Cc1ccccc1)NC(=O)[C@@H](NC(=O)CNC(=O)[C@H](CCC(N)=O)NC(=O)[C@@H](CO)NC(=O)[C@@H](N)Cc1c[nH]cn1)[C@@H](C)O)[C@@H](C)O)C(=O)N[C@@H](CCC(=O)O)C(=O)N[C@@H](CO)C(=O)N[C@@H](CCCNC(=N)N)C(=O)N[C@@H](CCCNC(=N)N)C(=O)N[C@@H](C)C(=O)N[C@@H](CCC(N)=O)C(=O)N[C@@H](CC(=O)O)C(=O)N[C@@H](Cc1ccccc1)C(=O)N[C@H](C(=O)N[C@@H](CCC(=O)O)C(=O)N[C@@H](Cc1c[nH]c2ccccc12)C(=O)N[C@@H](CC(C)C)C(=O)N[C@@H](CCCCN)C(=O)N[C@@H](CCCNC(=N)N)C(=O)NCC(=O)NCC(=O)N1CCC[C@H]1C(=O)N[C@@H](CO)C(=O)N[C@@H](CO)C(=O)NCC(=O)N[C@@H](C)C(=O)N1CCC[C@H]1C(=O)N1CCC[C@H]1C(=O)N1CCC[C@H]1C(=O)N[C@@H](CO)C(N)=O)[C@@H](C)CC)C(=O)O [compound 127]	14.7 pM	9.4 pM
CCCCCCCCCCCCCCCC(=O)N[C@@H](CCC(=O)NCCCC[C@H](NC(=O)[C@H](CCC(N)=O)NC(=O)[C@H](CCCCN)NC(=O)[C@H](CO)NC(=O)[C@H](CC(C)C)NC(=O)[C@H](CC(=O)O)NC(=O)[C@H](CO)NC(=O)[C@@H](NC(=O)[C@H](Cc1ccccc1)NC(=O)[C@@H](NC(=O)CNC(=O)[C@H](CCC(N)=O)NC(=O)[C@@H](CO)NC(=O)[C@@H](N)Cc1c[nH]cn1)[C@@H](C)O)[C@@H](C)O)C(=O)N[C@@H](CC(=O)O)C(=O)N[C@@H](CO)C(=O)N[C@@H](CCCNC(=N)N)C(=O)N[C@@H](CCCNC(=N)N)C(=O)N[C@@H](C)C(=O)N[C@@H](CCC(N)=O)C(=O)N[C@@H](CC(=O)O)C(=O)N[C@@H](Cc1ccccc1)C(=O)N[C@H](C(=O)N[C@@H](CCC(=O)O)C(=O)N[C@@H](Cc1c[nH]c2ccccc12)C(=O)N[C@@H](CC(C)C)C(=O)N[C@@H](CCCCN)C(=O)N[C@@H](CO)C(=O)NCC(=O)NCC(=O)N1CCC[C@H]1C(=O)N[C@@H](CO)C(=O)N[C@@H](CO)C(=O)NCC(=O)N[C@@H](C)C(=O)N1CCC[C@H]1C(=O)N1CCC[C@H]1C(=O)N1CCC[C@H]1C(=O)N[C@@H](CO)C(N)=O)[C@@H](C)CC)C(=O)O [compound 128]	6.2 pM	1.6 pM
CCCCCCCCCCCCCCCC(=O)N[C@@H](CCC(=O)NCCCC[C@H](NC(=O)[C@H](CCC(N)=O)NC(=O)[C@H](CCCCN)NC(=O)[C@H](CO)NC(=O)[C@H](CC(C)C)NC(=O)[C@H](CC(=O)O)NC(=O)[C@H](CO)NC(=O)[C@@H](NC(=O)[C@H](Cc1ccccc1)NC(=O)[C@@H](NC(=O)CNC(=O)[C@H](CCC(N)=O)NC(=O)[C@@H](CO)NC(=O)[C@@H](N)Cc1c[nH]cn1)[C@@H](C)O)[C@@H](C)O)C(=O)N[C@@H](CCC(=O)O)C(=O)N[C@@H](CO)C(=O)N[C@@H](CCCNC(=N)N)C(=O)N[C@@H](CCCNC(=N)N)C(=O)N[C@@H](C)C(=O)N[C@@H](CCC(N)=O)C(=O)N[C@@H](CC(=O)O)C(=O)N[C@@H](Cc1ccccc1)C(=O)N[C@H](C(=O)N[C@@H](CCC(=O)O)C(=O)N[C@@H](Cc1c[nH]c2ccccc12)C(=O)N[C@@H](CC(C)C)C(=O)N[C@@H](CCCCN)C(=O)N[C@@H](CO)C(=O)NCC(=O)NCC(=O)N1CCC[C@H]1C(=O)N[C@@H](CO)C(=O)N[C@@H](CO)C(=O)NCC(=O)N[C@@H](C)C(=O)N1CCC[C@H]1C(=O)N1CCC[C@H]1C(=O)N1CCC[C@H]1C(=O)N[C@@H](CO)C(N)=O)[C@@H](C)CC)C(=O)O [compound 129]	14.8 pM	4.1 pM
CCCCCCCCCCCCCCCCCC(=O)N[C@@H](CCC(=O)NCCCC[C@H](NC(=O)[C@H](CCC(N)=O)NC(=O)[C@H](CCCCN)NC(=O)[C@H](CO)NC(=O)[C@H](CC(C)C)NC(=O)[C@H](CC(=O)O)NC(=O)[C@H](CO)NC(=O)[C@@H](NC(=O)[C@H](Cc1ccccc1)NC(=O)[C@@H](NC(=O)CNC(=O)[C@H](Cc1c[nH]cn1)NC(=O)[C@@H](CO)NC(=O)[C@@H](N)Cc1c[nH]cn1)[C@@H](C)O)[C@@H](C)O)C(=O)N[C@@H](CC(=O)O)C(=O)N[C@@H](CO)C(=O)N[C@@H](CCCCN)C(=O)N[C@@H](C)C(=O)N[C@@H](C)C(=O)N[C@@H](CCC(N)=O)C(=O)N[C@@H](CC(C)C)C(=O)N[C@@H](Cc1ccccc1)C(=O)N[C@H](C(=O)N[C@@H](CCC(=O)O)C(=O)N[C@@H](Cc1c[nH]c2ccccc12)C(=O)N[C@@H](CC(C)C)C(=O)N[C@@H](CCCCN)C(=O)N[C@@H](C)C(=O)N[C@H](C)C(=O)NCC(=O)N1CCC[C@H]1C(=O)N[C@@H](CO)C(=O)N[C@@H](CO)C(=O)NCC(=O)N[C@@H](C)C(=O)N1CCC[C@H]1C(=O)N1CCC[C@H]1C(=O)N1CCC[C@H]1C(=O)N[C@@H](CO)C(N)=O)[C@@H](C)CC)C(=O)O [compound 138]	5.5 pM	9.2 pM
CCCCCCCCCCCCCCCC(=O)N[C@@H](CCC(=O)N[C@@H](CCC(=O)NCCCC[C@H](NC(=O)[C@H](CCC(N)=O)NC(=O)[C@H](CCCCN)NC(=O)[C@H](CO)NC(=O)[C@H](CC(C)C)NC(=O)[C@H](CC(=O)O)NC(=O)[C@H](CO)NC(=O)[C@@H](NC(=O)[C@H](Cc1ccccc1)NC(=O)[C@@H](NC(=O)CNC(=O)[C@H](CCC(N)=O)NC(=O)[C@@H](CO)NC(=O)[C@@H](N)Cc1c[nH]cn1)[C@@H](C)O)[C@@H](C)O)C(=O)N[C@@H](CC(=O)O)C(=O)N[C@@H](CO)C(=O)N[C@@H](CCCCN)C(=O)N[C@@H](C)C(=O)N[C@@H](C)C(=O)N[C@@H](CCC(N)=O)C(=O)N[C@@H](CC(=O)O)C(=O)N[C@@H](Cc1ccccc1)C(=O)N[C@H](C(=O)N[C@@H](CCC(=O)O)C(=O)N[C@@H](Cc1c[nH]c2ccccc12)C(=O)N[C@@H](CC(C)C)C(=O)N[C@@H](CCCCN)C(=O)N[C@@H](C)C(=O)NCC(=O)NCC(=O)N1CCC[C@H]1C(=O)N[C@@H](CO)C(=O)N[C@@H](CO)C(=O)NCC(=O)N[C@@H](C)C(=O)N1CCC[C@H]1C(=O)N1CCC[C@H]1C(=O)N1CCC[C@H]1C(=O)N[C@@H](CO)C(N)=O)[C@@H](C)CC)C(=O)O)C(=O)O [compound 140]	1.3 pM	1.5 pM
CCCCCCCCCCCCCCCCCCCC(=O)N[C@@H](CCC(=O)NCCCC[C@H](NC(=O)[C@H](CCC(N)=O)NC(=O)[C@H](CCCCN)NC(=O)[C@H](CO)NC(=O)[C@H](CC(C)C)NC(=O)[C@H](CC(=O)O)NC(=O)[C@H](CO)NC(=O)[C@@H](NC(=O)[C@H](Cc1ccccc1)NC(=O)[C@@H](NC(=O)CNC(=O)[C@H](CCC(N)=O)NC(=O)[C@@H](CO)NC(=O)[C@@H](N)Cc1c[nH]cn1)[C@@H](C)O)[C@@H](C)O)C(=O)N[C@@H](CC(=O)O)C(=O)N[C@@H](CO)C(=O)N[C@@H](CCCCN)C(=O)N[C@@H](C)C(=O)N[C@@H](C)C(=O)N[C@@H](CCC(N)=O)C(=O)N[C@@H](CC(=O)O)C(=O)N[C@@H](Cc1ccccc1)C(=O)N[C@H](C(=O)N[C@@H](CCC(=O)O)C(=O)N[C@@H](Cc1c[nH]c2ccccc12)C(=O)N[C@@H](CC(C)C)C(=O)N[C@@H](CCCCN)C(=O)N[C@@H](C)C(=O)NCC(=O)NCC(=O)N1CCC[C@H]1C(=O)N[C@@H](CO)C(=O)N[C@@H](CO)C(=O)NCC(=O)N[C@@H](C)C(=O)N1CCC[C@H]1C(=O)N1CCC[C@H]1C(=O)N1CCC[C@H]1C(=O)N[C@@H](CO)C(N)=O)[C@@H](C)CC)C(=O)O [compound 142]	4.1 pM	2.1 pM
CCCCCCCCCCCCCCCCCC(=O)N[C@@H](CCC(=O)NCCCC[C@H](NC(=O)[C@H](CCC(N)=O)NC(=O)[C@H](CCCCN)NC(=O)[C@H](CO)NC(=O)[C@H](CC(C)C)NC(=O)[C@H](CC(=O)O)NC(=O)[C@H](CO)NC(=O)[C@@H](NC(=O)[C@H](Cc1ccccc1)NC(=O)[C@@H](NC(=O)CNC(=O)[C@H](CCC(N)=O)NC(=O)C(C)(C)NC(=O)[C@@H](N)Cc1c[nH]cn1)[C@@H](C)O)[C@@H](C)O)C(=O)N[C@@H](CC(=O)O)C(=O)N[C@@H](CCC(=O)O)C(=O)N[C@@H](CCC(N)=O)C(=O)N[C@@H](CCCNC(=N)N)C(=O)N[C@@H](C)C(=O)N[C@@H](CCCCN)C(=O)N[C@@H](CCC(=O)O)C(=O)N[C@@H](Cc1ccccc1)C(=O)N[C@H](C(=O)N[C@@H](CCC(=O)O)C(=O)N[C@@H](Cc1c[nH]c2ccccc12)C(=O)N[C@@H](CC(C)C)C(=O)N[C@@H](CCCCN)C(=O)N[C@@H](C)C(=O)NCC(=O)NCC(=O)N1CCC[C@H]1C(=O)N[C@@H](CO)C(=O)N[C@@H](CO)C(=O)NCC(=O)N[C@@H](C)C(=O)N1CCC[C@H]1C(=O)N1CCC[C@H]1C(=O)N1CCC[C@H]1C(=O)N[C@@H](CO)C(N)=O)[C@@H](C)CC)C(=O)O [compound 152]	3.2 pM	2.3 pM
